Results reported in patent US11453897B2, “Method for producing aminobenzoic acid or an aminobenzoic acid derivative product” (Covestro Intellectual Property GmbH & Co. KG, priority 2018, dated 2022).

Tests used:
[1] = Formation of insoluble calcium ortho-aminobenzoate with calcium chloride at pH 7.0; dissolved ortho-aminobenzoic acid measured in the aqueous phase; assay type: physicochemical; conditions: 48.0 g CaCl2, pH 7.0, 100 g ortho-aminobenzoic acid added
Method: 48.0 g of anhydrous calcium chloride was added to 1.00 L of fermentation broth. The pH was adjusted to a value of 7.0 by adding hydrochloric acid. 100 g of ortho-aminobenzoic acid (dissolved in sodium hydroxide solution at pH 7.0) was then added to this mixture by adding 200 mL of oAB STOCK SOLUTION. There was briefly precipitation of calcium ortho-aminobenzoate. The concentration of dissolved ortho-aminobenzoic acid measured in the aqueous phase was 18.0 g/L. The solids fraction of the mixture was filtered off and dried at 80° C. for 48 h. In this way, 110 g of dried solid material was obtained. 20.0 g of that was added to 50.0 mL of AMMONIUM STOCK SOLUTION 1, the mixture was stirred and the concentration of dissolved ortho-aminobenzoic acid was determined. The latter was 146 g/L.
48.0 g of anhydrous calcium chloride was added to 800 mL of water. The pH was adjusted to a value of 7.0 by adding hydrochloric acid. […] The concentration of dissolved ortho-aminobenzoic acid measured in the aqueous phase was 18.0 g/L. The solids fraction of the mixture was filtered off and dried at 80° C. for 48 h. […] 20.0 g of that was added to 25.0 mL of AMMONIUM STOCK SOLUTION 2, the mixture was stirred and the concentration of dissolved ortho-aminobenzoic acid was determined. […]

[2] = Determination of the solubility of calcium ortho-aminobenzoate in water; assay type: physicochemical; conditions: stirred at room temperature for 10 min
Method: 3.00 g of dried calcium ortho-aminobenzoate was stirred into 100 mL of demineralized water and stirred at room temperature for 10 min. Subsequently, the concentration of dissolved ortho-aminobenzoic acid was determined in the aqueous phase. The latter was 17.0 g/L.
3.00 g of dried calcium ortho-aminobenzoate was stirred into 50 mL of demineralized water and stirred at room temperature for 10 min. Subsequently, the concentration of dissolved ortho-aminobenzoic acid was determined in the aqueous phase. The latter was 17.5 g/L.

## calcium ortho-aminobenzoate
[1]; 1.00 L fermentation broth
  concentration of dissolved ortho-aminobenzoic acid measured in the aqueous phase after precipitation: 18000 µg/mL
[1]; 800 mL water
  concentration of dissolved ortho-aminobenzoic acid measured in the aqueous phase after precipitation: 18000 µg/mL
[2]; 3.00 g dried salt in 50 mL demineralized water
  concentration of dissolved ortho-aminobenzoic acid in the aqueous phase: 17500 µg/mL
[2]; 3.00 g dried salt in 100 mL demineralized water
  concentration of dissolved ortho-aminobenzoic acid in the aqueous phase: 17000 µg/mL
